Source: patent publication US20240376607A1, “METHOD AND COMPOSITION FOR TREATING DILUTION STEAM GENERATOR SYSTEMS” (BL Technologies, Inc., priority 2021, published 2024)

Assay: Autoclave V-L distribution (volatility) in DSG Water A
Format: physicochemical
Settings: LC-MS
Method: Autoclave experiments were conducted using a Parr pressure vessel. Each test was carried out for 4 days at 185° C. (˜150 psig) with DSG water containing about 150 ppm of filmer. Ammonia was pre-mixed in test solution to achieve a pH range of 8.2 to 8.8 in both the vapor and liquid phases. For each run, vapor and liquid samples were collected at the regular interval. These samples were analyzed through the liquid chromatography-mass spectrometry (LC-MS) technique to determine the filmer concentration.

Row | Liquid (Day 1, 185° C.) | Vapor (Day 1, 185° C.) | Liquid (Day 2, 185° C.) | Vapor (Day 2, 185° C.) | Liquid (Day 3, 185° C.) | Vapor (Day 3, 185° C.) | Liquid (Day 4, 185° C.) | Vapor (Day 4, 185° C.) | Substance
1 | 165 ppm | 1.6 ppm | 177 ppm | 1.8 ppm | 190 ppm | 2.8 ppm | 190 ppm | 3.5 ppm | Dodecynyl Succinic Acid [DDSA]
2 | 69 ppm | 1.3 ppm | 86 ppm | 1.9 ppm | 86 ppm | 1 ppm | 97 ppm | 2.4 ppm | octenyl succinic acid [OSA]
